Literature values, collected in patent US20070099863A1, “Compounds for the treatment of demyelinating and autoimmune diseases” (priority 2003, published 2007).
Counter-ions that a name gives are not always drawn.

Biological target: T1, P2X3 (Homo sapiens, UniProt P56373)
T1 sequence (P56373 1-397): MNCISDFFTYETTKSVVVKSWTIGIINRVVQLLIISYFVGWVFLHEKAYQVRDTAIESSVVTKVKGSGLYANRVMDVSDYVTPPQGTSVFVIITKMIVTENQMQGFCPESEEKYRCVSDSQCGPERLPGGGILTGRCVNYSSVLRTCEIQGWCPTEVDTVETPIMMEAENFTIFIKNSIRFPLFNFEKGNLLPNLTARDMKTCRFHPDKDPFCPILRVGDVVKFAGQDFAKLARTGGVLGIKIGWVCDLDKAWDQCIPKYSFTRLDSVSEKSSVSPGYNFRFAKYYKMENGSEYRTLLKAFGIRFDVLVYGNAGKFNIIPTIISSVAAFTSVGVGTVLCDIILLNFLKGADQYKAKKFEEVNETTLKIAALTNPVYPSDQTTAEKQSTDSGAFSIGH
Details: P2X3 subtype; read-out: IC50 in relation to P2X3; cited from earlier work

Cc1nc(N=Nc2ccc(S(=O)(=O)O)cc2S(=O)(=O)O)c(COP(=O)(O)O)c(C=O)c1O [PPADS, tetrasodium salt of pyridoxalphosphate-6-azophenyl-2′,4′-disulfonic acid]
IC50: 1000 nM
